# Measurements published in PubChem BioAssay AID678 (Vanderbilt High Throughput Screening Facility, 2007).
# What follows is the remainder of the data, with few or none of the hits. Activity calls are given as the source filed them.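 Rule for the calls: active = fluorescence response below the plate's average for near-maximal glutamate wells, less 3 SD of those wells; inactive = the rest.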
# Molecular target: Metabotropic glutamate receptor 4 (Homo sapiens) (UniProt Q14833)
# Assay: mGluR4 calcium signal in M1 antagonist follow-up – cell-based, antagonist mode, secondary assay 1, M1 allosteric modulator project (AID 678);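 note: raw unnormalized fluorescence span taken in the window right after glutamate addition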
# Details: CHO-mGluR4 calcium flux, Fluo-4 fluorescence, glutamate EC80; at 10 µM; hits give low values
row,SMILES,fluorescence response (max-min)
1,C[N+]1(C)[C@@H]2CC(OC(=O)[C@H](CO)c3ccccc3)C[C@H]1[C@@H]1O[C@@H]12 (stereo partly specified),inactive: 245
